This is an account of results in ChEMBL document CHEMBL3808358, “Rational Design of Small Peptides for Optimal Inhibition of Cyclooxygenase-2: Development of a Highly Effective Anti-Inflammatory Agent” (J Med Chem, 2016).

This experiment is described as follows: Selectivity index, ratio of IC50 for ovine COX1 to IC50 for human recombinant COX2. The gist of the method: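 Ovine COX-1 and human recombinant COX-2 with heme are preincubated with inhibitor for 10 min at 37 °C. Arachidonic acid is then added for 2 min at 37 °C. Prostaglandins are quantified by competitive AChE-tracer EIA, read at 420 nm. Four concentrations (10^-5 to 10^-8 M) are tested in triplicate. IC50 is taken from the dose-response curve of the mean % inhibition.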

Consider `CC(C)C[C@H](NC(=O)CNC(=O)[C@@H](N)C(C)C)C(=O)O`, for which the Ratio IC50 is 5.
